How the values were obtained:
B-cell subsets = assay: Longitudinal blood analysis of B-cell subsets (MAGNIFY-MS deep immune phenotyping)
lymphocytes = assay: Absolute lymphocyte count (ALC) in vaccinated MAGNIFY-MS patients; assay type: in vivo, human; details: month 6
[1] = Patient 70056800227010005, Month 2
[2] = Patient 70056800227010005, Month 2 to end of month 3
[3] = Patient 70056800227010005, end of month 3
[4] = Patient Australia VZV-70056800221260001, month 0, 8.6 wk after Zostavax, 1.3 wk before first Mavenclad dose
[5] = Patient Australia VZV-70056800221260001, month 3, 24.6 wk after Zostavax, 14.7 wk after first Mavenclad dose
[6] = Patient Canada VZV-70056800222530003, month 0, 9.7 wk after Shingrix, before first Mavenclad dose
[7] = Patient Canada VZV-70056800222530003, month 3, 23.0 wk after Shingrix, 13.3 wk after first Mavenclad dose
[8] = Patient Finland VZV-70056800221620004, month 0, 6.4 wk after Zostavax, before first Mavenclad dose
[9] = Patient Finland VZV-70056800221620004, month 12, 61.3 wk after Zostavax, 54.9 wk after first Mavenclad dose
[10] = Patient Finland VZV-70056800221620004, month 15, 74.3 wk after Zostavax, 13.0 wk after first dose of previous Mavenclad course

Nc1nc(Cl)nc2c1ncn2[C@H]1C[C@H](O)[C@@H](CO)O1 [cladribine tablets, Cladribine]
Bregs, change vs baseline (B-cell subsets; Month 1): −37%
Memory B-cells, change vs baseline (B-cell subsets; Month 1): −77%
CD 19+ B-cells, change vs baseline (B-cell subsets; Month 1, listed as Cladribine): −76%
Naïve B-cells, change vs baseline (B-cell subsets; Month 1, listed as Cladribine): −79%
Transitional B-cells, change vs baseline (B-cell subsets; Month 1, listed as Cladribine): −61%
CD 19+ B-cells, change vs baseline (B-cell subsets; Month 1, listed as cladribine): −76%
Naïve B-cells, change vs baseline (B-cell subsets; Month 1, listed as cladribine): −79%
Transitional B-cells, change vs baseline (B-cell subsets; Month 1, listed as cladribine): −61%
Bregs, change vs baseline (B-cell subsets; Month 2): −10%
CD 19+ B-cells, change vs baseline (B-cell subsets; Month 2, listed as Cladribine): −90%
Memory B-cells, change vs baseline (B-cell subsets; Month 2, listed as Cladribine): −93%
Naïve B-cells, change vs baseline (B-cell subsets; Month 2, listed as Cladribine): −92%
Transitional B-cells, change vs baseline (B-cell subsets; Month 2, listed as Cladribine): −61%
CD 19+ B-cells, change vs baseline (B-cell subsets; Month 2, listed as cladribine): −90%
Memory B-cells, change vs baseline (B-cell subsets; Month 2, listed as cladribine): −93%
Naïve B-cells, change vs baseline (B-cell subsets; Month 2, listed as cladribine): −92%
Transitional B-cells, change vs baseline (B-cell subsets; Month 2, listed as cladribine): −61%
Memory B-cells, change vs baseline (B-cell subsets; Month 3): −93%
Bregs, change vs baseline (B-cell subsets; Month 3, listed as Cladribine): +216%
CD 19+ B-cells, change vs baseline (B-cell subsets; Month 3, listed as Cladribine): −76%
Naïve B-cells, change vs baseline (B-cell subsets; Month 3, listed as Cladribine): −69%
Transitional B-cells, change vs baseline (B-cell subsets; Month 3, listed as Cladribine): +35%
Bregs, change vs baseline (B-cell subsets; Month 3, listed as cladribine): +216%
CD 19+ B-cells, change vs baseline (B-cell subsets; Month 3, listed as cladribine): −76%
Naïve B-cells, change vs baseline (B-cell subsets; Month 3, listed as cladribine): −69%
Transitional B-cells, change vs baseline (B-cell subsets; Month 3, listed as cladribine): +35%
Memory B-cells, change vs baseline (B-cell subsets; Month 6): −92%
Bregs, change vs baseline (B-cell subsets; Month 6, listed as Cladribine): +202%
CD 19+ B-cells, change vs baseline (B-cell subsets; Month 6, listed as Cladribine): −57%
Naïve B-cells, change vs baseline (B-cell subsets; Month 6, listed as Cladribine): −35%
Transitional B-cells, change vs baseline (B-cell subsets; Month 6, listed as Cladribine): +19%
Bregs, change vs baseline (B-cell subsets; Month 6, listed as cladribine): +202%
CD 19+ B-cells, change vs baseline (B-cell subsets; Month 6, listed as cladribine): −57%
Naïve B-cells, change vs baseline (B-cell subsets; Month 6, listed as cladribine): −35%
Transitional B-cells, change vs baseline (B-cell subsets; Month 6, listed as cladribine): +19%
Bregs, change vs baseline (B-cell subsets; Month 12, listed as Cladribine): +75%
CD 19+ B-cells, change vs baseline (B-cell subsets; Month 12, listed as Cladribine): −11%
Memory B-cells, change vs baseline (B-cell subsets; Month 12, listed as Cladribine): −89%
Naïve B-cells, change vs baseline (B-cell subsets; Month 12, listed as Cladribine): +32%
Transitional B-cells, change vs baseline (B-cell subsets; Month 12, listed as Cladribine): +23%
Bregs, change vs baseline (B-cell subsets; Month 12, listed as cladribine): +75%
CD 19+ B-cells, change vs baseline (B-cell subsets; Month 12, listed as cladribine): −11%
Memory B-cells, change vs baseline (B-cell subsets; Month 12, listed as cladribine): −89%
Transitional B-cells, change vs baseline (B-cell subsets; Month 12, listed as cladribine): +23%
memory B cell decrease (B-cell subsets; Patient 70056800222520001, month 6): 80%
CD38^bright Plasma cells (B-cell subsets; [1]): 822 cells/ml
Short lived PCs (CD27^bright) (B-cell subsets; [1]): 831 cells/ml
CD38^bright Plasma cells increase (B-cell subsets; [2]): 3.3 fold
Short lived PCs (CD27^bright) increase (B-cell subsets; [2]): 3.3 fold
CD20+ B cells reduction (B-cell subsets; Patient 70056800227010005, Month 3): −72%
CD38^bright Plasma cells (B-cell subsets; [3]): 2716 cells/ml
Short lived PCs (CD27^bright) (B-cell subsets; [3]): 2762 cells/ml
CD19+ B-cells (B-cell subsets; [4]): 121 cells/μL
CD20+ B-cells (B-cell subsets; [4]): 119.1 cells/μL
CD38+ Plasma cells (B-cell subsets; [4]): 1.0 cells/μL
CD69+ actv. B-cells (B-cell subsets; [4]): 1.9 cells/μL
Memory B-cells (B-cell subsets; [4]): 29.1 cells/μL
Naïve B-cells (B-cell subsets; [4]): 84.6 cells/μL
Regulatory B-cells (B-cell subsets; [4]): 1.1 cells/μL
Short-lived PCs (B-cell subsets; [4]): 0.9 cells/μL
Transitional B-cells (B-cell subsets; [4]): 4.1 cells/μL
CD19+ B-cells (B-cell subsets; [5]): 18 cells/μL
CD20+ B-cells (B-cell subsets; [5]): 17.5 cells/μL
CD38+ Plasma cells (B-cell subsets; [5]): 0.3 cells/μL
CD69+ actv. B-cells (B-cell subsets; [5]): 0.3 cells/μL
Memory B-cells (B-cell subsets; [5]): 2.3 cells/μL
Naïve B-cells (B-cell subsets; [5]): 13.7 cells/μL
Regulatory B-cells (B-cell subsets; [5]): 4.5 cells/μL
Short-lived PCs (B-cell subsets; [5]): 0.2 cells/μL
Transitional B-cells (B-cell subsets; [5]): 7.0 cells/μL
CD69+ actv. B-cells (B-cell subsets; [6]): 3.0 cells/μL
Memory B-cells (B-cell subsets; [6]): 67.0 cells/μL
Naïve B-cells (B-cell subsets; [6]): 160.7 cells/μL
Regulatory B-cells (B-cell subsets; [6]): 13.4 cells/μL
Transitional B-cells (B-cell subsets; [6]): 18.1 cells/μL
CD19+ B-cells (B-cell subsets; [7]): 39 cells/μL
CD20+ B-cells (B-cell subsets; [7]): 38.6 cells/μL
CD38+ Plasma cells (B-cell subsets; [7]): 0.3 cells/μL
CD69+ actv. B-cells (B-cell subsets; [7]): 0.3 cells/μL
Memory B-cells (B-cell subsets; [7]): 1.9 cells/μL
Naïve B-cells (B-cell subsets; [7]): 35.2 cells/μL
Regulatory B-cells (B-cell subsets; [7]): 12.5 cells/μL
Short-lived PCs (B-cell subsets; [7]): <LLOQ
Transitional B-cells (B-cell subsets; [7]): 12.2 cells/μL
CD19+ B-cells (B-cell subsets; [8]): 290 cells/μL
CD20+ B-cells (B-cell subsets; [8]): 284.3 cells/μL
CD38+ Plasma cells (B-cell subsets; [8]): 2.8 cells/μL
CD69+ actv. B-cells (B-cell subsets; [8]): 3.3 cells/μL
Memory B-cells (B-cell subsets; [8]): 44.2 cells/μL
Naïve B-cells (B-cell subsets; [8]): 235.4 cells/μL
Regulatory B-cells (B-cell subsets; [8]): 6.2 cells/μL
Short-lived PCs (B-cell subsets; [8]): 2.1 cells/μL
Transitional B-cells (B-cell subsets; [8]): 16.9 cells/μL
CD19+ B-cells (B-cell subsets; [9]): 257 cells/μL
CD20+ B-cells (B-cell subsets; [9]): 255.3 cells/μL
CD38+ Plasma cells (B-cell subsets; [9]): 0.6 cells/μL
CD69+ actv. B-cells (B-cell subsets; [9]): 3.3 cells/μL
Memory B-cells (B-cell subsets; [9]): 6.5 cells/μL
Naïve B-cells (B-cell subsets; [9]): 245.8 cells/μL
Regulatory B-cells (B-cell subsets; [9]): 6.5 cells/μL
Short-lived PCs (B-cell subsets; [9]): 0.4 cells/μL
Transitional B-cells (B-cell subsets; [9]): 17.8 cells/μL
CD19+ B-cells (B-cell subsets; [10]): 88 cells/μL
CD20+ B-cells (B-cell subsets; [10]): 86.2 cells/μL
CD38+ Plasma cells (B-cell subsets; [10]): 0.3 cells/μL
CD69+ actv. B-cells (B-cell subsets; [10]): 1.0 cells/μL
Memory B-cells (B-cell subsets; [10]): 1.3 cells/μL
Naïve B-cells (B-cell subsets; [10]): 83.3 cells/μL
Regulatory B-cells (B-cell subsets; [10]): 30.5 cells/μL
Short-lived PCs (B-cell subsets; [10]): 0.2 cells/μL
Transitional B-cells (B-cell subsets; [10]): 29.9 cells/μL
ALC (lymphocytes; Patient Canada VZV-70056800222530003, 37.7 wk after Shingrix, 28.0 wk after first Mavenclad dose): 800 cells/μL
ALC (lymphocytes; Patient Finland VZV-70056800221620004, 32.3 wk after Zostavax, 25.9 wk after first Mavenclad dose): 580 cells/μL

Source: US12533408B2, “Treatment regimen for the treatment of autoimmune disorders” (Merck Patent GmbH, priority 2020, dated 2026)
